Publication PMC8000448, “Inhibitory Effects of Schisandra Lignans on Cytochrome P450s and Uridine 5′-Diphospho-Glucuronosyl Transferases in Human Liver Microsomes” (Pharmaceutics, 2021)

The chains behind the UniProt entries cited, without tags or fusion partners.
UniProt P33261, whole entry: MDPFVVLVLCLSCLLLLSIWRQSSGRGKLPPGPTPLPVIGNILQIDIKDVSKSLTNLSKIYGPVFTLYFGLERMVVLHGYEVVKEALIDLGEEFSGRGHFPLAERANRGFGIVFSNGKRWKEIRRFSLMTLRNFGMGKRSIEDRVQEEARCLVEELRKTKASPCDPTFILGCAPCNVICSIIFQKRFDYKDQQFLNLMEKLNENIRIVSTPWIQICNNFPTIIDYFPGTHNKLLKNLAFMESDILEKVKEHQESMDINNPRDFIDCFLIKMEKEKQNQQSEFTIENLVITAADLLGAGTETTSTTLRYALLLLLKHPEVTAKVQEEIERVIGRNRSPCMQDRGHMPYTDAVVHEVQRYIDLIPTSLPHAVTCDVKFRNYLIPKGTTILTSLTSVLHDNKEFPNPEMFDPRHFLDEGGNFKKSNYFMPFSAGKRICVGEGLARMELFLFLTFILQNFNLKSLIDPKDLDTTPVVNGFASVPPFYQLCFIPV
UniProt P08684, whole entry: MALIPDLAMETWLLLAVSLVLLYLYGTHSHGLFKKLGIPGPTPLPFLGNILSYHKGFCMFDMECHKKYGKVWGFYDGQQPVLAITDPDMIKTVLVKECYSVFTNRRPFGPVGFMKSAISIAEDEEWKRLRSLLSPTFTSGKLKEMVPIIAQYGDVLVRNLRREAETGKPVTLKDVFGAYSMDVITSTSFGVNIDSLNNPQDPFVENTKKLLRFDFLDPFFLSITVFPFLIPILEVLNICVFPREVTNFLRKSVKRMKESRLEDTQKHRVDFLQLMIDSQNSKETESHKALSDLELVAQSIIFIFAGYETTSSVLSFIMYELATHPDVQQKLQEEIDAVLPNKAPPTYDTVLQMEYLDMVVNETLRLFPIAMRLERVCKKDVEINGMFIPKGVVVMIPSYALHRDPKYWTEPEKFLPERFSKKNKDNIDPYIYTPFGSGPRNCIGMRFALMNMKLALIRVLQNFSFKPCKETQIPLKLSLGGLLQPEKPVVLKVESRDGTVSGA
UniProt P10632, whole entry: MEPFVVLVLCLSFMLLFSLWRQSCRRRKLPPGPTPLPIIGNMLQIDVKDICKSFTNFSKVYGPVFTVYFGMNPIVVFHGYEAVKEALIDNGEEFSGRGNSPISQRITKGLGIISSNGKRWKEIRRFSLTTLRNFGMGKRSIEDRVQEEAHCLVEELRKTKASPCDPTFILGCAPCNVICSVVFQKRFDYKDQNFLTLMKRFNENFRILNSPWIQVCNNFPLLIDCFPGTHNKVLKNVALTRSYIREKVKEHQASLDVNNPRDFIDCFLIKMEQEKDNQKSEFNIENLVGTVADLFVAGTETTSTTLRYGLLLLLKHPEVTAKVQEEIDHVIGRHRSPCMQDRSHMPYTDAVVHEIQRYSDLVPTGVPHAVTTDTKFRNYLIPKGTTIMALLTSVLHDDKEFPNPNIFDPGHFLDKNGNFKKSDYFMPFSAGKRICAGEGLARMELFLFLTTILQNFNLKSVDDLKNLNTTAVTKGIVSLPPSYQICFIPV

Experiments:
[1] = target: T1, rCYP2C19 (Homo sapiens, UniProt P33261); test: Inhibition of recombinant CYP2C19 (S-mephenytoin); format: in vitro ADME
T1 construct: purchased SPMED (Busan, Korea)
Experimental: (§1) The incubation mixture consisted of 0.1 M potassium phosphate buffer (pH 7.4), 20 pmol/mL rCYP2C8, rCYP2C19, or rCYP3A4 enzyme, respective probe substrate and gomisin A (0~50 μM) in a final volume of 100 μL. After a 5 min pre-incubation period at 37 °C, reactions were initiated by the addition of an NADPH generating system, and further incubated for 10 min at 37 °C. […] Other conditions remained as described above.

[2] = target: T2, rCYP3A4 (Homo sapiens, UniProt P08684); test: Inhibition of recombinant CYP3A4 (midazolam); format: in vitro ADME
T2 construct: purchased SPMED (Busan, Korea)
Experimental: as §1

[3] = target: T3, rP450s (Homo sapiens, UniProt P10632); test: Glutathione trapping of reactive metabolites in recombinant P450 isoforms; format: in vitro ADME; details: 50 μM, 120 min, NADPH and GSH; UPLC-HRMS
T3 construct: purchased SPMED (Busan, Korea)
Experimental: (§2) Gomisin A (50 μM) was incubated for 120 min at 37 °C with rP450s (20 pmol/mL) in 0.1 M phosphate buffer (pH 7.4) in the presence of 2 mM NADPH and 5 mM GSH. Control incubations in the absence of NADPH and GSH were conducted. Incubation samples were quenched with a half-fold volume of cold methanol. After centrifugation, supernatants were concentrated under vacuum and reconstituted with methanol (100 μL). Samples were analyzed by ultra-performance liquid chromatography-high resolution mass spectrometry (UPLC-HRMS).
(§3) To determine the GSH adducts produced by rP450s, a Vanquish UPLC system coupled with a QExactive Focus Orbitrap mass spectrometer (Thermo Fisher Scientific Inc., Waltham, MA, USA) was used. A Kinetex C18 column (100 × 2.1 mm, 2.6 μm) was used to separate the samples. The mobile phase was composed of water containing 0.1% formic acid (A) and acetonitrile containing 0.1% formic acid (B). The gradient elution was set as 10% B for 0–3 min, 10%→98% B for 3–10 min, 98%→10% B for 10–10.1 min, 10% B for 10.1–12 min. The flow rate was set to 0.2 mL/min. Data acquisition was carried out at m/z 100–800 with a resolution of 70,000 in the total ion scan mode, and MS/MS spectra were acquired at m/z 50–750 at a resolution of 17,500 in the daughter ion scan mode. […]

[4] = tested on: rP450s; test: as above; format: in vitro ADME, human; details: rP450s, 50 μM, 2 mM NADPH, 5 mM glutathione; PRM method
Experimental: as §2, §3

[5] = recombinant enzyme, RI/TDI fold shift

gomisin A
IC50 ([1]; recombinant enzyme 20 pmol/mL, average ± S.E. of triplicate, read-out: IC50 RI, rCYP2C19): 11.3 ± 3.3 µM | IC50 ([1]; recombinant enzyme, 30 min NADPH pre-incubation, average ± S.E., listed as gomisin A, read-out: IC50 TDI, rCYP2C19): < 5 µM | IC50 ([1]; recombinant enzyme, 30 min NADPH pre-incubation, average ± S.E., read-out: IC50 TDI, rCYP2C19): 4.98 ± 0.49 µM | IC50 shift, rCYP2C19 [1, 5]: 2.3 | IC50 ([2]; recombinant enzyme 20 pmol/mL, average ± S.E. of triplicate, read-out: IC50 RI, rCYP3A4): 1.51 ± 0.2 µM | IC50 ([2]; recombinant enzyme, 30 min NADPH pre-incubation, average ± S.E., listed as gomisin A, read-out: IC50 TDI, rCYP3A4): < 5 µM | IC50 ([2]; recombinant enzyme, 30 min NADPH pre-incubation, average ± S.E., read-out: IC50 TDI, rCYP3A4): 0.51 ± 0.07 µM | IC50 shift, rCYP3A4 [2, 5]: 3.0 | GSH conjugates formed in rCYP2C8 [3]: only one GSH conjugate | P450 isoforms involved in formation of carbene reactive metabolite (GSH adduct) [4]: CYP2C8, CYP2C19, and CYP3A4

Read-outs that look alike come from different tables or passages of the source.
